Results taken from patent publication US4921808A, “Method for determining follicle stimulating hormone” (The Albany Medical College of Union University, priority 1986, dated 1990).

System: Calf Testes FSH-Receptors
Assay: Radio-ligand-receptor assay (RRA): binding of [125I]-hFSH to "crude" calf testes membranes
Conditions: calf testes plasma membrane extract with about 5 to about 25 fmol receptors per mg membrane wet weight, standard conditions of Example 8

ratio of specific binding to nonspecific binding: at least 5
Substance: electrophoretically purified, radiolabeled FSH: radio-iodinated FSH purified by 7.5% polyacrylamide gel electrophoresis and eluted from gel slices (Example 5)
